Patent US11066363B2, “Substituted 6,11-dihydro-5H-benzo[B]carbazoles as inhibitors of ALK and SRPK” (Dana-Farber Cancer Institute, Inc., priority 2015, dated 2021)

Sequences of proteins named here, by UniProt entry; tags and fusion partners are left off.
UniProt Q96SB4, whole entry: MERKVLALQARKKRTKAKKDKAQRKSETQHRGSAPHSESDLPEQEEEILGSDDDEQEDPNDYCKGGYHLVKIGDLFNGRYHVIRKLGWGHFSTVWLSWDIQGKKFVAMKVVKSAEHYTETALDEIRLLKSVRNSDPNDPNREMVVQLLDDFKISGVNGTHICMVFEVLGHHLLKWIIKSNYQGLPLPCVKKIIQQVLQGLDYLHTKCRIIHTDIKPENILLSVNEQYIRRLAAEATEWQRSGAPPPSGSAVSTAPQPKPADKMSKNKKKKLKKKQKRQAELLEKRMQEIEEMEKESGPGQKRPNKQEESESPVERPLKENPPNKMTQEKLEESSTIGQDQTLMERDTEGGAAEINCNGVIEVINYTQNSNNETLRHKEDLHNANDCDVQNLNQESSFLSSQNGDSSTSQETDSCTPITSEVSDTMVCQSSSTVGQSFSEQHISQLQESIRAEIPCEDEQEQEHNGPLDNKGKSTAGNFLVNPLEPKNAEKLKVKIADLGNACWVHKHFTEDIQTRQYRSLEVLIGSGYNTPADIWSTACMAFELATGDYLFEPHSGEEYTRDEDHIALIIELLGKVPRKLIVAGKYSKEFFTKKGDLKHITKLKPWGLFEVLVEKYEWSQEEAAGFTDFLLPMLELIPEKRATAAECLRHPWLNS

Target: SRPK1 (Homo sapiens (Human), UniProt Q96SB4)
Assay: SRPK1 inhibitory activity
Type: biochemical

For CCc1cc2c(cc1-c1cccc(S(=O)(=O)F)c1)C(C)(C)c1[nH]c3cc(C#N)ccc3c1C2=O [Compound 37, 3-(3-cyano-9-ethyl-6,6-dimethyl-11-oxo-6,11-dihydro-5H-benzo[b]carbazol-8-yl)benzenesulfonyl fluoride], the IC50 was 35.6 nM.
